The text below walks through data of patent publication US8404646B2, “Methods for preventing or treating mitochondrial permeability transition” (Cornell Research Foundation, Inc., priority 2003, dated 2013).

The chains behind the UniProt entries cited, without tags or fusion partners.
UniProt P35372, whole entry, species assumed: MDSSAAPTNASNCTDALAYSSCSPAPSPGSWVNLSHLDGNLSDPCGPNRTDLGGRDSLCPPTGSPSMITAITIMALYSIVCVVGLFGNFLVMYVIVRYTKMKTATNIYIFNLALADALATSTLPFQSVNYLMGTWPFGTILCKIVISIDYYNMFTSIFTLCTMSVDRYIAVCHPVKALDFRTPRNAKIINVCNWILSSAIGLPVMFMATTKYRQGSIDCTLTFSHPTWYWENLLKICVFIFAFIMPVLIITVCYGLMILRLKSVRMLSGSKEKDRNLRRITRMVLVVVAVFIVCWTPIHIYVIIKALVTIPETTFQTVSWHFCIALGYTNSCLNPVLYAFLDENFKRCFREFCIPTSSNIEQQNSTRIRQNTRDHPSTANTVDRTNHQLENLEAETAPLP

Series [1] deals with isolated mouse liver mitochondria. Kind of series: Uptake into isolated mitochondria (fluorescence quenching, radioactivity in pellet). In kind it is in vitro ADME. The conditions noted are these: 5-30 min at 37° C.; assuming matrix volume 0.7 μl/mg protein. The protocol: FIG. 1: Cellular internalization and accumulation of [Dmt^1]DALDA (SS-02) in mitochondria. (FIG. 1A) Mitochondrial uptake of SS-19 was determined using fluorescence spectrophotometry (ex/em=320/420 nm). […] Pretreatment of mitochondria with FCCP (1.5 μM) reduced quenching by <20% (black line). (FIG. 1B) Isolated mitochondria were incubated with [^3H]SS-02 at 37° C. for 2 min. Uptake was stopped by centrifugation (16000×g) for 5 min at 4° C., and radioactivity determined in the pellet. Pretreatment of mitochondria with FCCP inhibited [^3H]SS-02 uptake by ˜20%. Data are shown as mean±s.e.; n=3. *, P<0.05 by Student's t-test. […] Black line, TMRM; red line, SS-19. […]
The pellet was resuspended in liver homogenate medium and the homogenization repeated twice. […] Protein concentration in the mitochondrial preparation was determined by the Bradford procedure.
Approximately 1.5 mg mitochondria in 400 μl buffer was incubated with [^3H][Dmt^1]DALDA for 5-30 min at 37° C. The mitochondria were then centrifuged down and the amount of radioactivity determined in the mitochondrial fraction and buffer fraction. […]
To confirm that the mitochondrial targeting was not an artifact of the fluorophore, we also examined mitochondrial uptake of [^3H][Dmt^1]DALDA. Isolated mitochondria were incubated with [^3H][Dmt^1]DALDA and radioactivity determined in the mitochondrial pellet and supernatant. […]

The target of series [2] is mu-opioid receptor (Homo sapiens, UniProt P35372). The note with it: cited from earlier work.
Series [3] relates to Caco-2. As to the kind of experiment: Cellular uptake of [3H][Dmt1]DALDA into cell monolayers. Format: cell-based, human. The conditions noted are these: estimated. As to the method: The cellular uptake of [^3H][Dmt^1]DALDA was studied using a human intestinal epithelial cell line (Caco-2), and confirmed with SH-SY5Y (human neuroblastoma cell), HEK293 (human embryonic kidney cell) and CRFK cells (kidney epithelial cell). Monolayers of cells were grown on 12-well plates (5×10^5 cells/well) coated with collagen for 3 days. On day 4, cells were washed twice with pre-wanned HBSS, and then incubated with 0.2 ml of HBSS containing either 250 nM [^3H][Dmt^1]DALDA at 37° C. or 4° C. for various times up to 1 h.
In a separate experiment, cells were incubated with a range of [Dmt^1]DALDA concentrations (1 μM-3 mM) for 1 h at 37° C. At the end of the incubation period, cells were washed 4 times with HBSS, and 0.2 ml of 0.1N NaOH with 1% SDS was added to each well. The cell contents were then transferred to scintillation vials and radioactivity counted. To distinguish between internalized radioactivity from surface-associated radioactivity, an acid-wash step was included. Prior to cell lysis, cells were incubated with 0.2 ml of 0.2 M acetic acid/0.05 M NaCl for 5 min on ice.

For series [4], the system named is isolated mouse liver mitochondria. As to the kind of experiment: Mitochondrial respiration (oxygen consumption). In kind it is biochemical. The conditions noted are these: 100 μM.

In the case of “2′,6′-dimethyltyrosine-D-Arg-Phe-Lys-NH2 [SS-02]”, the “concentration in mitochondria relative to buffer” value in series [1] amounted to 200 times. For the same substance, in series [2], the “mu-opioid receptor agonist activity” value is listed as “potent mu-opioid receptor agonist”. In addition, in series [3], the “intracellular concentration relative to extracellular concentration” value is recorded as “approximately 50 times”. The “respiratory ratio (state 3/state 4)” value in series [4] turned out to be 6.2 versus 6.0.
